These results are taken from paper PMC5933747 (PLoS ONE, 2018).

By UniProt entry, the sequences of proteins in these tests, tags left out.
UniProt Q15858, whole entry: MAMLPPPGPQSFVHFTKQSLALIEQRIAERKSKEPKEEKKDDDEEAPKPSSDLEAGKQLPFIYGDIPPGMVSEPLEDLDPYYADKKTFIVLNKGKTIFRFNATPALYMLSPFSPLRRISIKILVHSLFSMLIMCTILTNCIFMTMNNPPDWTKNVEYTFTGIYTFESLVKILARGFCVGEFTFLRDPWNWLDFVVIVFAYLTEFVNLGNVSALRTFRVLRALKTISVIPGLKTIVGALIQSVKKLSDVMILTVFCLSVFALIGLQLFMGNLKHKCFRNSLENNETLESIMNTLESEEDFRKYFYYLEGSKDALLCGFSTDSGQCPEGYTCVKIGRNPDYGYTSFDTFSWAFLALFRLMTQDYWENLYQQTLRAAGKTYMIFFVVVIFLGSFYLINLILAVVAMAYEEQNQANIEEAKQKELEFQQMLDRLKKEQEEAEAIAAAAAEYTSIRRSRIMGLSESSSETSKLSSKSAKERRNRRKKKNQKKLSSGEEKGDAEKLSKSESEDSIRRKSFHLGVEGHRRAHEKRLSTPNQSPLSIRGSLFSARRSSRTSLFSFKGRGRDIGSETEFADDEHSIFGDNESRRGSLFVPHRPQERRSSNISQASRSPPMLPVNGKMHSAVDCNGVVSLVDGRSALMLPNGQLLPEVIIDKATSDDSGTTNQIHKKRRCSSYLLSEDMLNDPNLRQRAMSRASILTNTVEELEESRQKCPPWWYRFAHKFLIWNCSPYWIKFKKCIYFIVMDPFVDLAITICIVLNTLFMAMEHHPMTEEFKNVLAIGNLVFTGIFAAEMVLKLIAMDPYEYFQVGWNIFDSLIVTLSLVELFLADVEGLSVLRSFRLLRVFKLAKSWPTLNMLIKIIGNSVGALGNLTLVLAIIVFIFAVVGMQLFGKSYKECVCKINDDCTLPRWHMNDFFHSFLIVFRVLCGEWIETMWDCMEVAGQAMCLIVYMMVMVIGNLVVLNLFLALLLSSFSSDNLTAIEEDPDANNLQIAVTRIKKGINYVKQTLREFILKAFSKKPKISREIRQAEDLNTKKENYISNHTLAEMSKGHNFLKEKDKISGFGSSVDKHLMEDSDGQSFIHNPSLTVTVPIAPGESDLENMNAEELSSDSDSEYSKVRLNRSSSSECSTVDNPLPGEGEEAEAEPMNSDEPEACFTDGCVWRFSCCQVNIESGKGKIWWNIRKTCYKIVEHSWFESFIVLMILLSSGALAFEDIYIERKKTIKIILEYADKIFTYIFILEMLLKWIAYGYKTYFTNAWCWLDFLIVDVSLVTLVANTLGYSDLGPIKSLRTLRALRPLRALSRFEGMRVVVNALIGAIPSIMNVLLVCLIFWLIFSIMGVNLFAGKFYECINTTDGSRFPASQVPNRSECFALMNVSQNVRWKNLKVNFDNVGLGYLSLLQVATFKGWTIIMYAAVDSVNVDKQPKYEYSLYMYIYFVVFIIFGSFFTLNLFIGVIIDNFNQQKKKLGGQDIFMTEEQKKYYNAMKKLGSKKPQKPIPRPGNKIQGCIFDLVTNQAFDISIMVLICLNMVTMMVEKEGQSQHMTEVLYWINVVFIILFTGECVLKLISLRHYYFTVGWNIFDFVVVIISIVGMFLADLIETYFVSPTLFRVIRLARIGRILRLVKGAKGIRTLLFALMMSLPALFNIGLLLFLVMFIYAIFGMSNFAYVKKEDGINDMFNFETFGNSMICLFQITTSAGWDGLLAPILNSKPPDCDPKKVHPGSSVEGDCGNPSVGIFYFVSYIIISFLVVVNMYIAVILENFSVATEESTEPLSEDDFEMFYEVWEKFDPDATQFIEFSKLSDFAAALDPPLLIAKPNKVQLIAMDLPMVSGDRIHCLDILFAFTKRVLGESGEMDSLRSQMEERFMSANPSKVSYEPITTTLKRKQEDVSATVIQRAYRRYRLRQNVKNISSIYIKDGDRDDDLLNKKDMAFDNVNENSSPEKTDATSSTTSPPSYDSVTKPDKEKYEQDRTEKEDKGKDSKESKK

One experiment has as its system mouse NaV1.7. The experiment is described as follows: Block of sodium currents, mouse NaV1.7 in heterologous HEK293 cells (platform not stated). Format: cell-based. The following applies: highest concentration tested 1 μM.
In the next experiment the target is human NaV1.7 (Homo sapiens, UniProt Q15858). The experiment is described as follows: Block of sodium currents, human NaV1.7 in heterologous HEK293 cells (platform not stated). The following applies: highest concentration tested 1 μM. Format: cell-based.
The test system of experiment [1] is mechanically-induced C-fiber action potential firing. The following applies: 16 μM (highest concentration tested); 150 mN mechanical stimulus; mouse skin-saphenous nerve. The protocol: Male C57BL/6 mice (Charles River Laboratories, San Diego, CA) between 2–3 months old (136 total mice used in study) were housed under standard temperature conditions (22–24°C) and illumination (12-hour light/dark cycle with lights on at 6:30 AM) with ad libitum access to fresh water and food. Mice were euthanized by CO2 followed by cervical dislocation. Experimental procedures for mouse skin-saphenous nerve studies were conducted as previously described with the use of 0.1% BSA (Acros) in the bath solution to decrease non-specific loss of peptide to chamber components [32]. Briefly, the saphenous nerve and skin from the left medial dorsum of the hind paw were dissected and mounted in a custom-made organ bath chamber. The proximal saphenous nerve end was passed through a hole into a separate recording chamber, desheathed and teased into fine fibers for extracellular recording. Mechanical responses were evoked by square force waves using a mechanical stimulator before and following peptide application to a small area of the corium (dermis) side of the skin in a custom-made stainless steel ring. Recording and analysis of C-fiber-mediated action potentials were performed in a blinded manner with respect to peptide treatment. […]

For experiment [2], the system named is capsaicin-induced action potential firing in rat DRG neurons. The experiment is described as follows: Multi-electrode array (MEA), capsaicin-induced action potential firing in rat DRG neurons. Format: cell-based. The following applies: cultured rat DRG neurons, 25 nM capsaicin (EC80) co-applied, 37°C, six replicate wells, read-out: IC50 for block of capsaicin-induced action potential firing. The protocol:
Action potentials of cultured postnatal day 2 rat DRG neurons (Lonza, Walkersville, MD) were detected using the Maestro multi-well plate-based MEA system (Axion Biosystems, Atlanta, GA). A 48-well MEA plate containing 16 electrodes/well was pre-coated with 10μL 0.1% PEI (Sigma-Aldrich, St. Louis, MO) in borate buffer (50mM boric acid (Fisher Scientific, Waltham, MA), 12mM sodium tetraborate (Sigma-Aldrich), pH 8.4). The plate was incubated at 37°C for 2h, washed 3-times with 200μL sterile ddH2O and then air dried. Next, 10μL of 20μg/mL laminin (Sigma) in Primary Neural Basal Medium (PNBM) (Lonza) was spotted over the PEI-treated electrode surface and incubated for 2h at 37°C. Laminin was removed and immediately replaced with 10μL/well of 7x10^6 cells/mL rat DRGs in PNBM. […] Baseline spontaneous firing was recorded for approximately 1 min. Twenty-five μL of PNBM, 325nM capsaicin (MP Biomedicals, 25nM final, EC80) in PNBM, or 325nM capsaicin plus test compound was then added, and action potentials were continuously recorded for another 2 min with six replicate wells used per condition. MEA data were analyzed using Axion Integrated Studio AxIS2.1 (Axion Biosystems) and GraphPad Prism version 7.02 for Windows (GraphPad Software, La Jolla, CA). […]

Molecules are shown by their SMILES.

Broadly, the IC50 is the midpoint of a concentration-inhibition curve. As for `C#CC[C@H](N)C(=O)N[C@@H](Cc1ccc(O)cc1)C(=O)N[C@H]1CSSC[C@@H]2NC(=O)[C@@H]3CSSC[C@@H](C(=O)N[C@@H](CCCNC(=N)N)C(=O)N[C@@H](CCCCN)C(=O)N[C@@H](CCC(=O)O)C(=O)N[C@H](C(N)=O)[C@@H](C)CC)NC(=O)[C@H](Cc4c[nH]c5ccccc45)NC(=O)[C@H](CC(C)C)NC(=O)[C@H](CCCCN)NC(=O)[C@H](CSSC[C@H](NC(=O)[C@H]([C@@H](C)O)NC(=O)[C@H](Cc4c[nH]c5ccccc45)NC(=O)[C@H](CCCC)NC(=O)[C@H](Cc4c[nH]c5ccccc45)NC(=O)[C@H](CCCCN)NC(=O)[C@H](CCC(N)=O)NC1=O)C(=O)N[C@@H](CC(=O)O)C(=O)N[C@@H](CO)C(=O)N[C@@H](CCCCN)C(=O)N[C@@H](CCCNC(=N)N)C(=O)N[C@@H](C)C(=O)N3)NC(=O)[C@H](CCCNC(=N)N)NC(=O)[C@H](CCC(=O)O)NC(=O)CNC(=O)[C@H](CCC(=O)O)NC2=O` [AM-8394, Pra-[Nle6;Glu19,28]JzTx-V(1–29)], the “block of sodium currents, mouse NaV1.7” value in the experiment on mouse NaV1.7 was “did not potently block sodium currents”. Further, the “block of sodium currents, human NaV1.7” value at human NaV1.7 is “did not potently block sodium currents”. In addition, the “effect on mechanically-induced C-fiber spiking at 16 μM” value in experiment [1] is “no effect on spiking”. Besides, in experiment [2], the IC50 was over 1 µM.
